According to article PMC6968775, “Assessment of contribution of BCRP to intestinal absorption of various drugs using portal‐systemic blood concentration difference model in mice” (Pharmacology Research & Perspectives, 2020):
Like-named read-outs stand apart in the source and are kept apart here.

Columns and labels:
[1] = Mdr1a/1b(−/−) mice

O=C(O)c1cn(C2CC2)c2cc(N3CCNCC3)c(F)cc2c1=O [ciprofloxacin, Ciprofloxacin]
k a ([1]; p.o. (ciprofloxacin 1, nitrofurantoin 2, topotecan 1, sulfasalazine 5 mg/kg)): 2.18 h⁻¹
k a, P‐gp ([1]; Table 5 summary, oral administration): 2.18
k a, wt (Table 5 summary, WT mice, oral administration): 1.63
k a (wild‐type mice, p.o. (ciprofloxacin 1, nitrofurantoin 2, topotecan 1, sulfasalazine 5 mg/kg)): 1.63 h⁻¹
